The series can be described thus: Solubility studies in various solvents. The note with it: 25° C.

Experimental findings from US10537520B2, “Stable liquid formulations of melphalan” (dated 2020) are described below.

Turning to Melphalan Hydrochloride, the “Solubility Result” value (100 mg in DMA 0.3 mL + Propylene Glycol 0.05 mL + Ethanol 0.65 mL) is “Clear”; the “Solubility Result” value (100 mg in DMA 0.5 mL + Ethanol 0.5 mL) is given as “Clear”; the “Solubility Result” value (100 mg in DMA 1.1 mL) is recorded as “Clear”; the “Solubility Result” value (100 mg in Ethanol 1 mL) was “Hazy solution”; the “Solubility Result” value (100 mg in PEG-400 0.1 mL + Propylene Glycol 0.9 mL) is “Clear”; the “Solubility Result” value (100 mg in PEG-400 0.2 mL + Propylene Glycol 0.8 mL) was “Clear”. In addition, the “Solubility Result” value by setting is: (100 mg in PEG-400 0.5 mL + Propylene Glycol 0.5 mL) “Clear”; (100 mg in PEG-400 0.7 mL + Propylene Glycol 0.3 mL) “Clear”; (100 mg in PEG-400 0.9 mL + Propylene Glycol 0.1 mL) “Clear”; (100 mg in PEG-400 1.0 mL + Propylene Glycol 0 mL) “Clear after”; (100 mg in Propylene Glycol 1 mL) “Not Clear”.
